Shown are actives, neighbours in structure and some others; about 0.73% of the full set was active somewhere.
RAD54 branch: RAD54 (human) branch migration inhibition; actives 0.14% (n = 360,000); RAD54 Holliday junction branch migration, FAM/BHQ fluorescence; inhibition, % at 10.4 µM; Q92698;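 active = mean normalized replicate activity at least 40 and at least half of replicates scoring 40 or more; inconclusive = only one of the two criteria met; inactive = mean below 40 and under half of replicates reaching 40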;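 also: 0% = median of neutral control wells and 100% = median of positive control wells; inhibitors cause a drop in the FAM fluorescence signal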
XiGFP reactiv: X-chromosome reactivation activator; XiGFP mouse fibroblasts, % GFP-positive cells imaging, 3 d; cells co-treated with 5-aza-dC sensitizer; scaled so ellipticine positive control = 100%; actives 0.055% (n = 360,000); activation, % at 7.58 µM;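 active = mean normalized replicate activation at least 10% and every replicate at or above 10%; inconclusive = only one of the two criteria met; inactive = mean below 10% and not all replicates reach 10%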;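 also: 0% = median of on-plate neutral control wells and 100% = ellipticine 6 µM median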
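assay system = SV40-immortalized XiGFP fibroblast cells, line 68-5-11 | buffer or medium = DMEM plus 5-aza-dC sensitizer | doses = single-point pinned compound dosing | times = 3-day compound exposure, then 15 min fixation at room temperature | benchmarks = positive control ellipticine, 6 µM final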
RAD52 anneal inh: blocks human RAD52 DNA annealing | actives 0.46% (n = 360,000) | P43351 | inhibition, % at 18.7 µM | recombinant RAD52 DNA annealing, FRET fluorescence;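 active = every replicate showing at least 50% inhibition; inconclusive = mean inhibition at least 50% but not in every replicate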
Yeast UUG start: alters start codon recognition fidelity in yeast | S. cerevisiae UUG-firefly luciferase reporter, luminescence/redox ratio | activity score, % at 18.7 µM | 350,000 compounds, 0.13% hits | AID 602363;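 active = replicate mean at a twofold rise or more, about +100% in these data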;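 note: firefly luciferase made from a UUG start codon reports start codon fidelity; reporter light over untreated wells divided by growth signal over untreated wells; some hits fall short of that in this replicate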
E-sel inducer: E-selectin induction on HUVECs; activation, % at 7.58 µM; actives 0.37% (n = 260,000); P16581; AID 686992; HUVEC E-selectin immunofluorescence imaging; normalized: neutral wells 0, TNF-alpha wells 100;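 active = mean E-selectin-positive cell signal at least 10% of the positive control, reached in at least 60% of replicates, without over 20% cell loss; inconclusive = no rule given, readout overlaps actives, possibly toxicity-flagged; inactive = the rest, including those meeting only one limit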
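Assay system: HUVEC, human umbilical vein endothelial cells / Amount: 3,000 HUVEC/well / Controls: TNF-alpha positive control, DMSO neutral control / Compound dosing: single concentration / Medium: EGM-2 over gelatin coat / Evaluation: percent E-selectin-positive cells / Signal: immunofluorescence imaging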
* marks the source's active call; other numbers are inactive results; i = inactive; ? = inconclusive; . = no result; ! = not confirmed by another sample.

#1 CN(C)C(=O)c1ccc(-c2ccc(C3[C@H]4CNC[C@@H]3N4C(=O)Nc3cccc(Cl)c3)cc2)cc1 (stereo partly specified)
#2 CCCNC(=O)Nc1ccc2c(c1)C(=O)N(C)C[C@@H](OC)[C@H](C)CN(Cc1cccnc1)[C@H](C)CO2
#3 CCCNC(=O)N1CCC2(CC1)CN(C(=O)CC)[C@H](CO)c1[nH]c3cc(OC)ccc3c12
#4 COc1ccc(NC(=O)N2[C@@H]3CNC[C@H]2C3c2ccc(-c3ccccc3C)cc2)cc1 (stereo partly specified)
#5 CO[C@@H]1CN(C)C(=O)c2cc(NC(C)=O)ccc2OC[C@@H](C)N(Cc2ccc(F)cc2)C[C@@H]1C
#6 C[C@@H]1CN([C@@H](C)CO)C(=O)Cc2cc(NC(=O)Nc3ccc(F)cc3)ccc2O[C@H]1CN(C)C(=O)Nc1ccc(C(F)(F)F)cc1
#7 Cc1noc(C)c1NC(=O)N(C)C[C@H]1Oc2ccc(NC(=O)Cc3ccccc3)cc2CC(=O)N([C@H](C)CO)C[C@H]1C
#8 C[C@@H]1CN([C@H](C)CO)C(=O)Cc2cc(NC(=O)Nc3cccc4ccccc34)ccc2O[C@@H]1CN(C)C(=O)Nc1ccc(C(F)(F)F)cc1

| entry no. | 1 | 2 | 3 | 4 | 5 | 6 | 7 | 8 |
| --- | --- | --- | --- | --- | --- | --- | --- | --- |
| RAD52 anneal inh | 56* | 9 | -7 | 64*! | -9 | . | -5 | 4 |
| RAD54 branch | . | -10 | . | . | 3 | 8 | -5 | 0 |
| XiGFP reactiv | 0 | 0 | 0 | 0 | 0 | 0 | -1 | -1 |
| E-sel inducer | 0 | 0 | 0 | 0 | 0 | 52* | 0 | 1 |
| Yeast UUG start | . | -6 | . | . | 2 | -6 | 4 | -1 |

#9 C[C@H]1CN([C@@H](C)CO)C(=O)Cc2cc(NC(=O)Nc3cccc4ccccc34)ccc2O[C@@H]1CN(C)C(=O)Nc1ccc(C(F)(F)F)cc1
#10 Cc1noc(C)c1NC(=O)Nc1ccc2c(c1)CC(=O)N([C@H](C)CO)C[C@@H](C)[C@H](CN(C)C(=O)Nc1ccc(F)cc1)O2
#11 Cc1noc(C)c1NC(=O)N(C)C[C@H]1Oc2ccc(NC(=O)Cc3ccccc3)cc2CC(=O)N([C@@H](C)CO)C[C@@H]1C
#12 COc1ccc(NC(=O)N(C)C[C@H]2OCCCC[C@H](C)Oc3ccc(NS(=O)(=O)c4c(C)noc4C)cc3C(=O)N([C@@H](C)CO)C[C@H]2C)cc1
#13 C[C@@H]1CN([C@H](C)CO)C(=O)c2cc(NC(=O)Nc3cccc4ccccc34)ccc2O[C@H]1CN(C)C(=O)Nc1cccc2ccccc12
#14 C[C@@H]1CN([C@@H](C)CO)C(=O)c2cccc(NS(=O)(=O)c3ccccc3)c2O[C@@H]1CN(C)CC1CC1
#15 C[C@@H]1CN([C@@H](C)CO)C(=O)Cc2cc(NC(=O)Cn3cnnn3)ccc2O[C@H]1CN(C)C(=O)Nc1ccc(C(F)(F)F)cc1
#16 CC(=O)N1CC(=O)N2[C@@H](CO)[C@H](c3ccc(C#CC(C)C)cc3)[C@@H]2C1

| entry no. | 9 | 10 | 11 | 12 | 13 | 14 | 15 | 16 |
| --- | --- | --- | --- | --- | --- | --- | --- | --- |
| RAD52 anneal inh | 12 | -14 | 77* | . | 4 | 9 | 1 | 4 |
| RAD54 branch | 2 | 3 | -8 | 4 | 8 | -17 | -9 | . |
| XiGFP reactiv | -1 | 0 | 0 | 0 | 0 | 0 | 0 | 0 |
| E-sel inducer | 55* | 39* | 0 | 0 | 1 | 16 | 415* | 0 |
| Yeast UUG start | 3 | 12 | 19 | 7 | 2 | 9 | 25 | . |

#17 O=C(O)CCC(=O)NCC(=O)c1ccc(F)cc1
#18 Cc1cc(C)n(-c2nc(NCCCN(C)C)c3c4c(sc3n2)CCCC4)n1
#19 Cc1cccc(NC(=O)NNS(=O)(=O)c2ccc(F)cc2)c1
#20 CC(=O)Nc1ccc(S(=O)(=O)NNc2cccc(C)c2)cc1
#21 Cn1nc(-c2ccc(Cl)cc2)c2cc(C(=O)NCCCN3CCOCC3)sc21
#22 CCN(CC)C1=CC2=CC(=C(C#N)C#N)CCC2CC1 (stereo unspecified)
#23 CCCCN(C)C1=CC2=CC(=C(C#N)C#N)CCC2CC1 (stereo unspecified)
#24 N#C[C@H]1[C@H](c2ccc(C#Cc3cccnc3)cc2)[C@@H](CO)N1C(=O)NC1CCCC1

| entry no. | 17 | 18 | 19 | 20 | 21 | 22 | 23 | 24 |
| --- | --- | --- | --- | --- | --- | --- | --- | --- |
| RAD52 anneal inh | -20 | 53* | 0 | -19 | . | i | i | . |
| RAD54 branch | 7 | 22 | . | -41 | 84* | . | . | . |
| XiGFP reactiv | 0 | 0 | 0 | 0 | . | 82* | ? | 0 |
| E-sel inducer | 70* | 0 | -2 | 57* | . | . | . | . |
| Yeast UUG start | -11 | -14 | . | -26 | -14 | . | . | . |

#25 N#Cc1ccc(-c2ccc(C3[C@H]4CNC[C@@H]3N4S(=O)(=O)c3ccc(-c4ccccc4)cc3)cc2)cc1 (stereo partly specified)
#26 Cc1ccccc1S(=O)(=O)N1[C@@H]2CNC[C@H]1C2c1ccc(-c2ccccc2)cc1 (stereo partly specified)
#27 Cc1ccc(-c2ccc(C3[C@H]4CNC[C@@H]3N4S(=O)(=O)c3cccc(C)c3)cc2)cc1 (stereo partly specified)
#28 O=S(=O)(c1cccc(Cl)c1)N1[C@@H]2CNC[C@H]1C2c1ccc(-c2cccc(F)c2)cc1 (stereo partly specified)
#29 Cc1cccc(-c2ccc(C3[C@H]4CNC[C@@H]3N4S(=O)(=O)c3ccccc3C)cc2)c1 (stereo partly specified)
#30 O=C(C[C@@H]1CC[C@H]2[C@@H](COC[C@H](O)CN2S(=O)(=O)c2ccc(Cl)cc2)O1)NCCN1CCCCC1
#31 COc1ccc(S(=O)(=O)N2[C@@H]3CNC[C@H]2C3c2ccc(-c3cccc(C)c3)cc2)cc1 (stereo partly specified)
#32 COc1ccc(-c2cn(CC[C@@H]3CC[C@@H](NC(=O)Cc4ccccn4)[C@@H](CO)O3)nn2)cc1

| entry no. | 25 | 26 | 27 | 28 | 29 | 30 | 31 | 32 |
| --- | --- | --- | --- | --- | --- | --- | --- | --- |
| RAD52 anneal inh | 82* | 55*! | 54*! | 54*! | -102 | -9 | 65*! | -21 |
| RAD54 branch | . | . | . | . | . | . | . | -3 |
| XiGFP reactiv | 0 | 0 | 0 | 0 | 0 | 0 | 0 | 0 |
| E-sel inducer | 0 | 0 | 0 | 0 | 0 | 0 | 0 | 2 |
| Yeast UUG start | . | . | . | . | . | . | . | 0 |

#33 CCC(=O)N(C)C[C@@H]1Oc2cc(C3=CCCCC3)ccc2S(=O)(=O)N([C@H](C)CO)C[C@H]1C
#34 C[C@@H]1CN([C@H](C)CO)S(=O)(=O)c2ccc(-c3ccc(F)cc3)cc2O[C@@H]1CN(C)CC1CC1
#35 COCC(=O)N(C)C[C@H]1Oc2cc(-c3ccc(F)cc3)ccc2S(=O)(=O)N([C@@H](C)CO)C[C@H]1C
#36 CCC(=O)N(C)C[C@H]1Oc2cc(C3=CCCC3)ccc2S(=O)(=O)N([C@@H](C)CO)C[C@@H]1C
#37 C[C@@H]1CN([C@H](C)CO)S(=O)(=O)c2ccc(C#Cc3cccc(F)c3)cc2O[C@@H]1CN(C)CC1CC1
#38 C[C@H](CO)N1C[C@H](C)[C@@H](CN(C)CC2CC2)Oc2cc(-c3ccc(F)cc3)ccc2S1(=O)=O
#39 COCC(=O)N(C)C[C@@H]1Oc2cc(-c3ccc(F)cc3)ccc2S(=O)(=O)N([C@H](C)CO)C[C@@H]1C

| entry no. | 33 | 34 | 35 | 36 | 37 | 38 | 39 |
| --- | --- | --- | --- | --- | --- | --- | --- |
| RAD52 anneal inh | . | 36 | 0 | 20 | 59* | 10 | -9 |
| RAD54 branch | . | 0 | -16 | 0 | 3 | 0 | 0 |
| XiGFP reactiv | 1 | -1 | 0 | 0 | 0 | . | -1 |
| E-sel inducer | -1 | 92* | 125* | 71* | -1 | . | 0 |
| Yeast UUG start | . | 16 | -4 | 4 | 2 | 17 | -7 |

Part of the list above in order of formula weight, ascending:
#36 CCC(=O)N(C)C[C@H]1Oc2cc(C3=CCCC3)ccc2S(=O)(=O)N([C@@H](C)CO)C[C@@H]1C
#33 CCC(=O)N(C)C[C@@H]1Oc2cc(C3=CCCCC3)ccc2S(=O)(=O)N([C@H](C)CO)C[C@H]1C
#34 C[C@@H]1CN([C@H](C)CO)S(=O)(=O)c2ccc(-c3ccc(F)cc3)cc2O[C@@H]1CN(C)CC1CC1

| entry no. | 36 | 33 | 34 |
| --- | --- | --- | --- |
| RAD52 anneal inh | 20 | . | 36 |
| RAD54 branch | 0 | . | 0 |
| XiGFP reactiv | 0 | 1 | -1 |
| E-sel inducer | 71* | -1 | 92* |
| Yeast UUG start | 4 | . | 16 |

Assay outcomes: PubChem BioAssay, Broad Institute
